Results published in patent publication US20220213145A1 (Bicycle, published 2022).

T1: Recombinant human CD137 homotrimer (R&D systems), biotinylated (human, UniProt Q07011 24-186, limits assumed, biotinylated with EZ-Link Sulfo-NHS-LC-LC-Biotin)
T1 construct: also called biotinylated CD137
T1 sequence (looked up): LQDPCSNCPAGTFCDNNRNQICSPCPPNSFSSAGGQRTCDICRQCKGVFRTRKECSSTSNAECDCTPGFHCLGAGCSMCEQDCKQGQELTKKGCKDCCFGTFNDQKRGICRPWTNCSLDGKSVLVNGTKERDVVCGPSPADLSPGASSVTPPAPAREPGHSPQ

T2: human CD137 (AcroBiosystems) protein (human, UniProt Q07011 24-186)
T2 construct: also called hCD137
T2 sequence (looked up): T1 sequence (looked up)

T3: human CD137 protein (direct binding assay) (human, UniProt Q07011 24-186, limits assumed)
T3 construct: Soluble CD137 protein titrated from 3 uM in the fluorescence polarisation assay; also called hCD137; TNFRSF9
T3 sequence (looked up): T1 sequence (looked up)

B1: BCY7297 (peptide)
peptide: ACIEEXQYCFADPYXCA
modifications: [PEG3]-ACIEEaQYCFADPY(Nle)CA (a = D-Ala); fluorescein-labelled; cyclised on TATA
notes: also called [PEG3]-(74-01-04) D-Ala4 Nle12; D-Ala4 peptide

These binders were tested against T1, Recombinant human CD137 homotrimer (R&D …) (assay: SPR (Biacore T200), biotinylated CD137 on streptavidin).

In order of rising Kd:
1. CIEEGQYCFADPYMC ([Ac]CIEEGQYCFADPYMC; cyclised on TATA, also called Ac-(74-01-04)) [BCY593]  37 nM
2. ACIEEGQYCFADPYMCA (ACIEEGQYCFADPYMCA; cyclised on TATA, also called 74-01-04; 74-01-04-N002) [BCY592]  41.8 nM
3. ACIEEGQYCFADPYMCA ([Ac]ACIEEGQYCFADPYMCA; cyclised on TATA, also called Ac-A-(74-01-04)-A) [BCY9273]  108 nM

These binders were tested against T2, human CD137 (AcroBiosystems) protein (assay: SPR (Biacore), amine-coupled CD137).

In order of rising Kd:
1. ACIEEGQYCFADPYMCA (ACIEEGQYCFADPYMCA; cyclised on TATA, also called 74-01-04; 74-01-04-N002) [BCY592]  70.9 nM
2. ACLPPGPYCFPDPYFCA (ACLPPGPYCFPDPYFCA; cyclised on TATA, also called 74-22-03) [BCY631]  92.3 nM
3. HEHCIEEGQYCYADPYMCA (HEHCIEEGQYCYADPYMCA; cyclised on TATA, also called 74-01-01-T01) [BCY589]  124 nM
4. ACIEEGQYCFADPYLCA (ACIEEGQYCFADPYLCA; cyclised on TATA, also called 74-01-11) [BCY599]  191 nM

These binders were tested against T3, human CD137 protein (direct binding …) (assay: FP direct binding; D-Ala at position 4 (D-Ala4 Nle12)).

B1 showed a Kd of 25.2 nM.

The binders below were run against T3, human CD137 protein (direct binding …) (assay: FP direct binding).

Work on ACIEEGQYCFADPYACA ([PEG3]-ACIEEGQYCFADPYACA; fluorescein-labelled; cyclised on TATA, also called [PEG3]-(74-01-04) Ala12) [BCY7293] yielded a Kd of 417 nM.

Molecular target: T3, human CD137 protein (direct binding …)
Experiment: FP direct binding
Remark: another data set of the same source

In order of rising Kd:
1. CIEEGKYCFADPYMC (Ac-CIEEGK(Peg12)YCFADPYMC; fluorescein-labelled; cyclised on TATA, also called Ac-(74-01-04)Lys5(PEG12)) [BCY7242]  48.3 nM
2. ACIEEGQYCFADPYMCA (ACIEEGQYCFADPYMCA-Sar6-K; fluorescein-labelled; cyclised on TATA, also called (74-01-04)-Sar6-K) [BCY640]  84 nM
3. ACIEEGQYCFADPYLCA (ACIEEGQYCFADPYLCA-Sar6-K; fluorescein-labelled; cyclised on TATA, also called (74-01-11)-Sar6-K) [BCY650]  86.5 nM
4. ACIEEGQYCYADPYLCA (ACIEEGQYCYADPYLCA-Sar6-K; fluorescein-labelled; cyclised on TATA, also called (74-01-09)-Sar6-K) [BCY646]  105 nM
5. ACIEEGQYCYADPYYCA ([B-Ala]-Sar5-ACIEEGQYCYADPYYCA; fluorescein-labelled; cyclised on TATA, also called (B-Ala)-Sar5-(74-01-02)) [BCY637]  122 nM
6. ACIEEGQYCYADPYMCA (ACIEEGQYCYADPYMCA-Sar6-K(Fl); fluorescein-labelled; cyclised on TATA, also called (74-01-01)-Sar6-K(Fl)) [BCY636]  124 nM
7. ACIEEGQYCHADPYMCA (ACIEEGQYCHADPYMCA-Sar6-K; fluorescein-labelled; cyclised on TATA, also called (74-01-13)-Sar6-K) [BCY652]  142 nM
8. ACIEEGQYCHADPYFCA (ACIEEGQYCHADPYFCA-Sar6-K; fluorescein-labelled; cyclised on TATA, also called (74-01-07)-Sar6-K) [BCY644]  145 nM
9. ACIEEGQYCHADPYYCA (ACIEEGQYCHADPYYCA-Sar6-K; fluorescein-labelled; cyclised on TATA, also called (74-01-06)-Sar6-K) [BCY643]  148 nM
10. ACIEEGQYCFADPYMCA (G-Sar5-ACIEEGQYCFADPYMCA; fluorescein-labelled; cyclised on TATA, also called G-Sar5-(74-01-04)) [BCY641]  152 nM
11. ACIEEGQYCYADPYYCA (ACIEEGQYCYADPYYCA-Sar6-K; fluorescein-labelled; cyclised on TATA, also called (74-01-02)-Sar6-K) [BCY638]  192 nM
12. ACIEEGQYCYSDPYLCA (ACIEEGQYCYSDPYLCA-Sar6-K; fluorescein-labelled; cyclised on TATA, also called (74-01-10)-Sar6-K) [BCY649]  207 nM
13. ACIEEGQYCYSDPYYCA (ACIEEGQYCYSDPYYCA-Sar6-K; fluorescein-labelled; cyclised on TATA, also called (74-01-03)-Sar6-K) [BCY639]  229 nM
14. CIEEGQYCKADPYMC (Ac-CIEEGQYCK(Peg12)ADPYMC; fluorescein-labelled; cyclised on TATA, also called Ac-(74-01-04)Lys7(PEG12)) [BCY7244]  296 nM
15. ACIEEGQYCHADPQMCA (ACIEEGQYCHADPQMCA-Sar6-K; fluorescein-labelled; cyclised on TATA, also called (74-01-14)-Sar6-K) [BCY653]  383 nM
16. CIEKGQYCFADPYMC (Ac-CIEK(Peg12)GQYCFADPYMC; fluorescein-labelled; cyclised on TATA, also called Ac-(74-01-04)Lys3(PEG12)) [BCY7240]  384 nM
17. CIKEGQYCFADPYMC (Ac-CIK(Peg12)EGQYCFADPYMC; fluorescein-labelled; cyclised on TATA, also called Ac-(74-01-04) Lys2(PEG12)) [BCY7239]  579 nM
18. CIEEGQYCFKDPYMC (Ac-CIEEGQYCFK(Peg12)DPYMC; fluorescein-labelled; cyclised on TATA, also called Ac-(74-01-04)Lys8(PEG12)) [BCY7245]  777 nM
19. ACIEEGQYCYRDMYMCA ([B-Ala]-Sar5-ACIEEGQYCYRDMYMCA; fluorescein-labelled; cyclised on TATA, also called (B-Ala)-Sar5-(74-01-00)) [BCY633]  1840 nM
